Shown are actives, neighbours in structure and some others; about 13% of the full set was active somewhere.
miR-21 reporter = miR-21 reporter, rising signal | 340,000 tested, under 10 active | AID 2288 | HeLa miR-21 FLuc reporter, luciferase, 48 h | Potency, µM (titrated, usually from 38.3 µM); active = well fitted rising curve with a large enough effect; inconclusive = small, poorly fitted or top-dose-only effect; inactive = no such curve, though single readings can be large or run the other way;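 further: miR-21 action dims this reporter so a rising signal means less miR-21 action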
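HeLa cells stably expressing CMV-driven firefly luciferase with a downstream miR-21 binding sequence, endogenously expressing miR-21, were treated with titrations (up to about 40uM final) for 48 hours at 37 degree Celsius. Luciferase luminescence was read after lysis.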
Sfp PPTase inh = Sfp phosphopantetheinyl transferase inhibition; Potency, µM, hits mostly inhibitors; hit rate 3.5% among 310,000; AID 1490; Biochemical Sfp PPTase activity, qHTS;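 further: the enzyme is Sfp with the accession as filed and its product quenches rhodamine fluorescence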
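Compounds were incubated with enzyme (final 15 nM) for 15 min at room temperature before substrate addition started the reaction. Fluorescence at 525 nm excitation, 598 nm emission was recorded immediately and after 30 minutes.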
G9a block = blocks human histone lysine methyltransferase G9a. Q96KQ7. G9a H3K9 monomethylation, AlphaScreen, 2 h. Potency, µM (highest dose often 102 µM), most hits filed as inhibitors. hit rate 8.8% among 350,000; further: nearly all actives have a fitted effect of over 75% in size
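AlphaScreen read-out: biotin-H3K9 peptide (500 nM) methylation by 20 nM enzyme with 20 uM SAM, 2 h at room temperature after 15 min compound preincubation; anti-monomethyl H3K9 antibody plus donor/acceptor beads, 10 min dark.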
LMNA splice mod = modulators of lamin A splicing; AID 1487; hit rate 0.01% among 200,000; HeLa LMNA splicing GFP/RFP minigene ratio, 48 h; Potency, µM (highest dose often 46.1 µM), hits mostly inhibitors; active means well fitted inhibition curve with a large enough effect in the signal ratio, with a control signal flat, not every such curve was filed as active; inconclusive means small, poorly fitted or top-dose-only effect, or effect the other way, or a change in a side signal; the % refers to the signal ratio
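S3 HeLa stable clones carrying a lamin A-EGFP splicing minigene plus DsRed2 were seeded at 600 cells/well in Opti-MEM with 2% FBS, pin-dosed and incubated 48 h at 37°C. Acumen cytometry (488 nm) gave the GFP/RFP total-intensity ratio.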
KDM4E inh = inhibitors of human JMJD2E histone demethylase; B2RXH2; JMJD2E catalytic domain, FDH-coupled NADH fluorescence (FDH is formaldehyde dehydrogenase); Potency, µM (doses to about 57.1 µM), most hits filed as inhibitors; hit rate 1.6% among 230,000; active means well fitted inhibition curve with a large enough effect, not every such curve was filed as active; inconclusive means small, poorly fitted or top-dose-only effect, or another doubt; inactive means no such curve, though single readings can be large or run the other way; further: nearly all actives have a fitted effect of over 50% in size
ALDH1A1 block = blocks purified human ALDH1A1 activity; Potency, µM (highest dose often 75.3 µM), usual class: inhibitors; Purified ALDH1A1, NADH fluorescence, propionaldehyde substrate; hit rate 7.3% among 220,000; P00352; active means well fitted inhibition curve with a large enough effect, not every such curve was filed as active; inconclusive means small, poorly fitted or top-dose-only effect, or another doubt; inactive means no such curve, though single readings can be large or run the other way
Hits are given with their value; 0 = inactive; ? = inconclusive; - = not tested or not shown; ! = repeats disagree; [ ] = dose if it differs, or a comment. Unless noted, the call rests on the fitted dose curve; in most records, active means well fitted curve in the direction sought with a large enough effect; inconclusive means small, poorly fitted or top-dose-only effect, or another doubt; inactive means no such curve, though single readings can be large; an effect the other way counts as inactive or inconclusive.

SMILES	miR-21 reporter	Sfp PPTase inh	G9a block	LMNA splice mod	KDM4E inh	ALDH1A1 block
O=C1CSc2ccccc2N1Cc1ccccc1F	0	0	0	0	0	22µM
O=C1CC(c2ccccc2)Sc2ccccc2N1Cc1ccccc1F (configuration not stated)	0	-	0	-	-	-
CO/N=C(\C(=O)O)c1csc(NN=C(C)C)n1	0	35µM	22µM	?	0	0
Cc1ccc(C(=O)/C=C/c2ccccc2[N+](=O)[O-])cc1	0	0	?	?	0	?
O=C(/C=C/c1ccccc1[N+](=O)[O-])c1ccccc1Br	0	?	40µM	?	0	?
CC(NC(=O)Cc1ccsc1)c1ccc(Cl)cc1Cl (configuration not stated)	0	0	0	-	-	-
O=C(CSc1ccc(F)cc1)N1CCN(S(=O)(=O)c2ccccc2)CC1	0	0	0	0	0	2.8µM
Cn1c(SCC(=O)N2CCN(S(=O)(=O)c3ccccc3)CC2)nc2ccccc21	0	0	0[12.7 µM]	0	0	0
CC(C)(C)NC(=O)CSc1nc(-c2ccccc2)c(-c2ccccc2)[nH]1	0	0	0[12.7 µM]	?	?	0
Nn1cc(-c2ccccc2)nc1SCC(=O)N1CCN(S(=O)(=O)c2ccccc2)CC1	0	0	25µM	0	0	0
CC(C)Cn1c(SCC(=O)N2CCN(S(=O)(=O)c3ccccc3)CC2)nc2ccccc21	0	0	0[12.7 µM]	?	0	13µM
O=C(O)CSc1nc(-c2ccccc2)c(-c2ccccc2)[nH]1	0	?	50µM	-	?	-
O=C(O)CCCC[C@@H]1SC[C@H]2NC(=O)N[C@@H]12	-	0	-	-	0	0
O=C(CSc1nc(-c2ccccc2)c(-c2ccccc2)[nH]1)N1CCN(S(=O)(=O)c2ccccc2)CC1	0	0	3.2µM	0	?	?
O=C(CSc1nc2ccccc2c(=O)[nH]1)N1CCN(S(=O)(=O)c2ccccc2)CC1	0	0	0[12.7 µM]	0	0	0
CC(=O)O[C@H]1C2=CO[C@H](C)[C@H]3[C@H]4C5=C([C@H](O)[C@H]6O[C@@H]6C5=O)[C@H](O[C@H]4C)[C@@]23C(=O)[C@H]2O[C@@H]21	-	0	-	-	-	0[13.5 µM]
O=C(Nc1ccccn1)c1ccc2ccccc2c1O	0	0	32µM	-	-	-
NNC(=O)c1nc[nH]c1C(=O)Nc1ccccn1	0	0	0	0	0	22µM
CCOc1cc(CNc2ccc(O)cc2)ccc1OCc1ccc(Cl)cc1	0	-	?	-	-	-
CCc1cccc(NC(=O)CNC(=O)N2CC(=O)Nc3ccccc32)c1	0	0	0	-	-	-
COc1cc(S(=O)(=O)N2CC(=O)Nc3ccccc32)ccc1NC(C)=O	0	0	40µM	-	-	-
O=C1CN(S(=O)(=O)c2cccc(C(=O)O)c2)c2ccccc2N1	0	0	50µM	-	-	-
Cc1cc(C)cc(C(=O)N2CC(=O)Nc3ccccc32)c1	0	0	0	?	0	?
CS(=O)(=O)c1ccc(C(=O)N2CC(=O)Nc3ccccc32)cc1	0	0	50µM	-	-	-
COc1ccc(S(=O)(=O)N2CC(=O)Nc3ccccc32)cc1C	0	0	0	-	-	-
SMILES	miR-21 reporter	Sfp PPTase inh	G9a block	LMNA splice mod	KDM4E inh	ALDH1A1 block
CCc1cccc(Nc2c([N+](=O)[O-])cc(C(=O)N3CC(=O)Nc4ccccc43)cc2[N+](=O)[O-])c1	0	0	25µM	0	0	0
COc1ccc(OC)c(-c2cc(C(=O)Nc3ccc(C)c(C)c3)no2)c1	0	-	0	-	-	-
CCOC(=O)c1ccccc1NC(=O)Cn1c(=O)n(CCCC(=O)NCc2ccc3c(c2)OCO3)c(=O)c2ccccc21	0	-	0	-	-	-
CCOC(=O)c1cccc(NC(=O)Nc2ccc3c(c2)N(C)C(=O)c2ccccc2S3)c1	0	-	?	-	-	-
CCOC(=O)c1c(-c2ccc(OC)cc2)csc1/N=C/C1=C(O)CCCC1=O	?	0	?	?	0	2.2µM
CCOC(=O)c1c(/N=C/C2=C(O)CCCC2=O)sc(C)c1C	0	0	0	0	0	0
Cc1ccc(NC(=O)CSc2ccc3nnc(CCNS(=O)(=O)c4ccccc4)n3n2)cc1Cl	0	-	0	-	-	-
Nc1cc(N)c(OCC(F)(F)F)cc1OCC(F)(F)F	0	?	50µM	0	?	0
CC(=O)Nc1c(C)nn(-c2ccccc2)c1N1CCC(C(=O)Nc2ccc(C)cc2Cl)CC1	0	-	0	?	-	-
C=CCN=C1N[C@@H](c2cccc(C(F)(F)F)c2)C(C(=O)OC)=C(C)N1CC	0	0	28µM!	-	-	-
C=CCN=C1N[C@@H](c2ccccc2)C(C(=O)OC)=C(C)N1CC	0	0	40µM!	-	-	-
C=CCN=C1N[C@@H](c2ccc(Br)cc2)C(C(=O)OC)=C(C)N1Cc1ccccc1	0	0	-	-	-	-
COC(=O)C1=C(C)N(Cc2ccccc2)C(=NCc2cccc(C(F)(F)F)c2)N[C@H]1c1cccc(F)c1	?	56µM	0[12.7 µM]	-	-	-
O=CN1CCc2c([nH]c3ccccc23)C1c1cccc2cccnc12 (configuration not stated)	-	0	-	-	0	0
COc1cc(Cl)c(C)cc1NC(=O)c1cnc2c(-c3cccc(C)c3)c(C)nn2c1C	0	-	0	?	-	-
COC(=O)c1c(C)sc(-c2c(-c3ccc(F)cc3)[nH]c3[nH]c(=O)[nH]c(=O)c23)c1O	0	-	?	0	-	-
CC1(C)C[C@@H]1C(=O)N/C(=C\CCCCSC[C@H](N)C(=O)O)C(=O)O	-	79µM	0[12.7 µM]	-	-	-
Cc1nc2ccccc2n1CCc1nc2c3ccccc3nc(SCc3ccc(C#N)cc3)n2n1	0	-	0	0	-	-
COc1ccccc1NS(=O)(=O)c1cccc(C(=O)N/N=C(\C)c2ccc3c(c2)OCCO3)c1	0	0	0	0	0	25µM
COC(=O)c1ccc(C)c(NS(=O)(=O)c2ccc(C)c([N+](=O)[O-])c2)c1	0	0	0	0	0	?
COC(=O)c1ccc(C)c(NS(=O)(=O)c2ccc3c(c2)OCCO3)c1	0	0	0[12.7 µM]	?	0	7.9µM
COC(=O)c1ccc(C)c(NS(=O)(=O)c2ccc(OC)cc2)c1	0	0	0	0	0	0.79µM
COc1ccccc1NS(=O)(=O)c1ccc2c(c1)OCCO2	0	0	0	-	-	-
CCN(CC(=O)Nc1c(C(=O)OC)[nH]c2ccc(Cl)cc12)c1ccc2c(c1)OCO2	0	0	28µM	0	?	?
CCOC(=O)c1[nH]c2ccc(Cl)cc2c1NC(=O)/C=C/c1ccc2c(c1)OCO2	0	0	0	0	?	0
O=C1OCCN1c1c(-c2ccccc2)c(-c2cccs2)nc2c(-c3ccccc3)cccc12	0	0	40µM	-	-	-
Cc1nnc2ccc(-c3ccc(NC(=O)c4ccco4)cc3)nn12	0	0	35µM	-	?	?
CC(=O)Nc1ccc(-c2ccc3nnc(C)n3n2)cc1	0	0	0	-	?	0
COCCn1c(=S)[nH]c2sc3c(c2c1=O)CCC(C)C3 (configuration not stated)	0	0	20µM	-	-	-
